{
  "sequences": {"note": "Protein sequences, listed by entry. Tags and fused reporters are not part of them.", "UniProt P19643, whole entry": "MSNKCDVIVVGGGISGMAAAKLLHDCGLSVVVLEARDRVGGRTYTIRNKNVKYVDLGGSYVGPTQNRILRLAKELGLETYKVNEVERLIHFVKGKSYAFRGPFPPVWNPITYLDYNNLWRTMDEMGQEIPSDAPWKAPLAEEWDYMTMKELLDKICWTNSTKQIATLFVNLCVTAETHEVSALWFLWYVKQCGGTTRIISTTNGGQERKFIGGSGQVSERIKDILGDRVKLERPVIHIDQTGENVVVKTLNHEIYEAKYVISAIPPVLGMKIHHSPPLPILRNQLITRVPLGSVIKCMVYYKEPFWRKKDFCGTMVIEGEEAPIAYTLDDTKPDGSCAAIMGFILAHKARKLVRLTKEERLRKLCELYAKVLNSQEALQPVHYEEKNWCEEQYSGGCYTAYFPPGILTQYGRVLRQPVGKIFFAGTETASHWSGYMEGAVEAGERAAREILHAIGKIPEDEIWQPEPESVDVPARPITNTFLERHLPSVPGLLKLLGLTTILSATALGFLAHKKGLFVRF"},
  "source": "ChEMBL document CHEMBL1131118",
  "about": "“Inhibition of monoamine oxidase-B by condensed pyridazines and pyrimidines: effects of lipophilicity and structure-activity relationships” (J Med Chem, 1998)",
  "target": "Amine oxidase [flavin-containing] B (Rattus norvegicus, UniProt P19643)",
  "experiment": "Inhibitory activity against Monoamine oxidase B from rat brain mitochondria",
  "data": [
    {"smiles": "Cc1cc2c(nn1)-c1ccccc1C2=O", "values": [
      {"measurement": "IC50", "value": 75.9, "unit": "µM"}
    ]}
  ]
}
